In patent US5215744A, “Methods for the treatment of tumors” (Boehringer Ingelheim GmbH, priority 1987, dated 1993):

Legend:
KT cells = details: HuIFN-β alone (as printed in text)
MM-1CB = details: agent alone: 10 units/ml HuIFN-β or 0.1 μM dipyridamole (FIG. 1)

B1: HuIFN-β: Natural HuIFN preparations; β (10^7 I.U./mg protein) (protein, UniProt P01574 22-187, looked up)
Interferon beta: MSYNLLGFLQRSSNFQCQKLLWQLNGRLEYCLKDRMNFDIPEEIKQLQQFQKEDAALTIYEMLQNIFAIFRQDSSSTGWNETIVENLLANVYHQINHLKTVLEEKLEKEDFTRGKLMSSLHLKRYYGRILHYLKAKEYSHCAWTIVRVEILRNFYFINRLTGYLRN
- DNA synthesis in KT cells (KT cells): inhibited
- suppression of cell proliferation (MM-1CB): only slightly effective in suppressing cell proliferation
